The test system of data set [1] is RAD54 promoter-GFP reporter (pGen001). The settings on record: S9 −.
For a further data set, the system named is SOS umuC. The settings on record: S9 −; cited from earlier work.

The structures appear in SMILES notation.

The values that follow come from patent US20080064053A1, “Genotoxicity Testing” (priority 2003, published 2008).

With `CN(N=O)C(=N)N[N+](=O)[O-]`, the “GSA (M), lowest effective concentration (LEC)” value in data set [1] was determined as 1.7e-06 M. In addition, the “SOS UMUC ASSAY (M), LEC” value in the data set on SOS umuC is 6e-06 M.
